How the values were obtained:
PA-IIL S23A = PA-IIL S23A (Pseudomonas aeruginosa, UniProt Q9HYN5, S24A); assay: ITC binding of monosaccharides to PA-IIL mutant S23A; conditions: ITC at 25°C; for ΔG: calculated from Ka
RS-IIL = tested on: RS-IIL; parameters: method as in PMID 16768446; conditions: ITC at 25°C, comparison data, Figure 7 gives ref 18; cited from earlier work
PA-IIL wild type = conditions: ITC at 25°C, ref Sabin, C. et al, 2006 [14]; cited from earlier work

Protein sequences, listed by entry. Tags and fused reporters are not part of them. Residues count along the entry.
UniProt Q9HYN5, 2-115 S24A: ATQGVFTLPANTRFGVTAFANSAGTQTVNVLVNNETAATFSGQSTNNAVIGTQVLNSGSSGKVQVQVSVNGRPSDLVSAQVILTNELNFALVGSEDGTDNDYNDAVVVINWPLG

CO[C@H]1O[C@H](CO)[C@@H](O)[C@H](O)[C@@H]1O [Me-β-D-Man, methyl α-D-mannopyranoside]
Kd (PA-IIL S23A): 54 µM
ΔG (PA-IIL S23A): -24.4 (± 0.4) kJ/mol
ΔH (RS-IIL): -24.9 (± 0.2) kJ/mol

CO[C@@H]1O[C@@H](CO)[C@@H](O)[C@@H](O)[C@@H]1O [Me-α-L-Gal, methyl α-L-galactopyranoside]
ΔG (PA-IIL wild type): -33.8 (± 0.1) kJ/mol
Kd (PA-IIL S23A): 1.23 µM
KA (PA-IIL S23A; 0.1 M Tris-HCl, 30 μM CaCl2, pH 7.5): 81.6 (± 14.4) ×10^4M^-1
ΔG (PA-IIL S23A): -33.9 (± 0.4) kJ/mol
